# Measurements taken from PubChem BioAssay AID493034 (The Scripps Research Institute Molecular Screening Center, 2011).
# Chains of the proteins cited; added tags and fusions are not shown.
# UniProt P68402, whole entry: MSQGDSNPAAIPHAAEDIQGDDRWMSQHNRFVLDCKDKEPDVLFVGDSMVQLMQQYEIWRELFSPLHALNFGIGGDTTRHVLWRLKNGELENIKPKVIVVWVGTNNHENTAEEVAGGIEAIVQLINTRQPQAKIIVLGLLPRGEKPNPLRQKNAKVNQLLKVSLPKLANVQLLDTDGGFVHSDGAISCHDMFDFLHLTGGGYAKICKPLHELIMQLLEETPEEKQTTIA
# The entries are a selection whose mix differs from that of the whole data set. Calls of active or inactive are those of the source.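 Rule for the calls: active = mean inhibition over triplicate runs exceeds the cutoff derived for the earlier primary screen (cut at about 25% in these data); inactive = the rest.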
# Biological target: Platelet-activating factor acetylhydrolase IB subunit alpha2 (Homo sapiens) (UniProt P68402)
# Assay: PAFAH1B2 inhibitors, confirmation, biochemical, fluorescence polarization, FP-rhodamine probe, triplicate (AID 493034);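 note: 0% = enzyme with DMSO and 100% = wells lacking PAFAH1B2 protein; inhibitors lower polarization by leaving the probe unbound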
# Conditions: recombinant PAFAH1B2, FP-rhodamine probe fluorescence polarization; at 3.39 µM; stronger effect = higher value
row,Compound,inhibition
1,CC(C)c1ccc(OP(C)(=O)Nc2ccc(SC(F)(F)F)cc2)cc1 (configuration not stated),active: 42.5%
2,CC(C)(C)c1ccc(OP(C)(=O)Nc2ccc(SC(F)(F)F)cc2)cc1 (configuration not stated),active: 31.7%
